Reference: PubChem BioAssay AID1362 (SRMLSC, 2008)
The list shows a part of the results, in another mix than the full data. The source made the active and inactive calls. No stated cut-off is given here; in the data, active means inhibition above about 58%; inactive means the rest, inconclusive results apart; tested in S. cerevisiae.

Assay: growth inhibition of WT strain, primary screen, mitochondrial fusion inhibitor project, WT and mutant strains, chemical genetic (AID 1362)
Conditions: mitochondrial fusion phenotypic screen, at 10 µM, active compounds read high

SMILES | inhibition
COc1ccccc1OP(C)(=O)Nc1ccccc1Br (centres undefined) | inactive: -4.16%
CCN(/C(=N/P(=O)(N1CCOCC1)N1CCOCC1)N1CCOCC1)c1ccc(OC)cc1 | inactive: -4.51%
CP(=O)(Nc1ccc(Cl)cc1)Oc1ccc(F)cc1 (centres undefined) | inactive: -9.51%
CC(C)=N/N=C(\N)N[N+](=O)[O-] | inactive: -28.3%
CN(C)C(=O)c1c([N+](=O)[O-])cc([N+](=O)[O-])cc1[N+](=O)[O-] | inactive: -13.4%
CN(C)C(=O)OCCc1n(C)cc[n+]1C | inactive: -14.8%
CC1CCN(C(=O)Oc2c(Cl)cc(Cl)c3cccnc23)CC1 | inactive: -1.91%
CCN(CC)CC(O)COC(=O)C(O)(c1ccccc1)C1CCCCC1 (centres undefined) | inactive: 1.68%
COc1ccc(C2=NCC(CBr)S2)cc1 (centres undefined) | inactive: -21.6%
COc1ccc(OP(C)(=O)Nc2ccc(Br)cc2)cc1 (centres undefined) | inactive: -8.22%
CC(=O)N1C2C3N(C(C)=O)C1C1N(C(C)=O)C(C(N1C(C)=O)N3C(C)=O)N2C(C)=O | inactive: 22.2%
O=[N+]([O-])c1cccc2n[nH]nc12 | inactive: -5.37%
Cc1ccc(NP(=O)(Oc2ccccc2)Oc2ccccc2)nc1 | inactive: -20%
CP(=O)(Oc1ccccc1)N1CCOC1=O (centres undefined) | inactive: 16.1%
CCc1ccc(OP(C)(=O)Nc2cccnc2)cc1 (centres undefined) | inactive: -13.3%
O=[N+]([O-])c1cc([N+](=O)[O-])c(CCNc2ccccc2)c([N+](=O)[O-])c1 | inactive: 34.1%
CCc1nc2c(n1)c1c(non1O)c1c2no[n+]1[O-] | inactive: 22%
CP(=O)(Nc1ccc2c(c1)OCCO2)Oc1ccccc1 (centres undefined) | inactive: -1.41%
Cc1ccccc1NP(C)(=O)Nc1ccccc1C | inactive: -3.91%
O=P(Nc1nccs1)(c1ccccc1)c1ccccc1 | inactive: -12.9%
CC(C)C(=O)NC(Sc1ccccc1)C(Cl)(Cl)Cl (centres undefined) | inactive: 1.03%
CCOP(C)(=S)SCC(=O)NC(C)(CC)C(=O)O (centres undefined) | inactive: 2.99%
c1nnnn1CCn1cnnn1 | inactive: -12.7%
CC(=O)NC(SC(=S)N(C)C)C(Cl)(Cl)Cl (centres undefined) | inactive: 2.58%
O=[N+]([O-])c1cc([N+](=O)[O-])c(NCC2CCS(=O)(=O)C2)c([N+](=O)[O-])c1 (centres undefined) | inactive: -2.42%
C(Cc1nn[nH]n1)Cc1nn[nH]n1 | inactive: -5.91%
O=C(OC1CN2CCC1CC2)c1cccc(Cl)c1 (centres undefined) | inactive: -1.31%
COc1ccc(OP(C)(=O)Nc2cccc(Br)c2)cc1 (centres undefined) | inactive: -23.8%
O=P(Nc1ccccn1)(c1ccc(Br)cc1)c1ccc(Br)cc1 | inactive: -1.08%
